Experiments:
[1] = biological target: Sodium-dependent dopamine transporter (Rattus norvegicus, UniProt P23977)
[2] = biological target: Norepinephrine transporter (Rattus norvegicus, UniProt Q9JIA2)

Chains of the proteins cited; added tags and fusions are not shown.
UniProt P23977, whole entry: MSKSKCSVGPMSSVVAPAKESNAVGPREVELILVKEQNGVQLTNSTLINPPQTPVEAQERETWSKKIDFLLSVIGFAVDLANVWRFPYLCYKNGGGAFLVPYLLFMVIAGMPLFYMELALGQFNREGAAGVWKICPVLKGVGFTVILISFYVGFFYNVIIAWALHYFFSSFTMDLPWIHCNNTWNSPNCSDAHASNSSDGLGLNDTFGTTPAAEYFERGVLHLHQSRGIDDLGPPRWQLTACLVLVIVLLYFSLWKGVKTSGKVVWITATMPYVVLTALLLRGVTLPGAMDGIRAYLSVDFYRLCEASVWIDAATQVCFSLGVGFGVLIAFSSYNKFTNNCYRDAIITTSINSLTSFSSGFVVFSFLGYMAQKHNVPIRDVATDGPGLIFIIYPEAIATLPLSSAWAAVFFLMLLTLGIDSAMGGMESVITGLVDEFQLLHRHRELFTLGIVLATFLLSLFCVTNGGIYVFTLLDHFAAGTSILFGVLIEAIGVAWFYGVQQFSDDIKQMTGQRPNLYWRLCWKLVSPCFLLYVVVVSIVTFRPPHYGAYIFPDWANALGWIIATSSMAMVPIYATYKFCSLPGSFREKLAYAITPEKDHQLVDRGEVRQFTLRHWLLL

COc1ccc(C(CN(C)C)C2(O)CCCCC2)cc1 (configuration not stated) [NSC_62923]
Ki [1]: > 10 µM | Ki [2]: 1000 nM

From BindingDB's records for PubMed 11454918
